Our source for the inhibition values is PubChem BioAssay AID1778 (Sanford-Burnham Center for Chemical Genomics, 2009).

Amino acid sequences for entries named in this document (tags omitted). A change or cut given only in a name is not applied to a line headed by its entry.
UniProt P41145: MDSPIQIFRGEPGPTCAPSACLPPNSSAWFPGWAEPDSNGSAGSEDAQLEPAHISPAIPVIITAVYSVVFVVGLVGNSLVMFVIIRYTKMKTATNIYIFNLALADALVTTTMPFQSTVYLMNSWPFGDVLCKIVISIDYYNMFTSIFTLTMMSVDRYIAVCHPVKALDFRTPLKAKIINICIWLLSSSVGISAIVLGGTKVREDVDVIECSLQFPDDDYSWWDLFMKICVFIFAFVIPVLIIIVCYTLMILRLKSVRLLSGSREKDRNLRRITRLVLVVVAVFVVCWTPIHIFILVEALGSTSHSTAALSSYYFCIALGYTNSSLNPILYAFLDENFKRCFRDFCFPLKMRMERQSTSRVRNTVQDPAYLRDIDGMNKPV

This is one part of the list. Results with a measured potency or affinity are listed apart. The source made the active and inactive calls. Cut-off read from the data, not from the text of the source: active = inhibition above about 50%; inactive = the rest.

The term inhibition denotes the drop in the measured response relative to a control, in per cent.

The target in the assay is Kappa-type opioid receptor (Homo sapiens) (UniProt P41145). The experiment in a line: KOR antagonists, beta-arrestin recruitment, cell-based, luminescence, uHTS (AID 1778). To be noted: antagonist mode, at 10 µM, hits give high values.
As for `Cn1c(=O)c2ncn(CC(=O)NCCC3=CCCCC3)c2n(C)c1=O`, the inhibition is inactive: -11.8%. On to `Cc1nc2ccc(NC(=O)Cn3cnc4c3c(=O)n(C)c(=O)n4C)cc2s1`, for which the inhibition is inactive: 10.1%. Consider `CC1CCCC(C)N1C(=O)Cn1c(SCC(=O)NCc2ccc3c(c2)OCO3)nc2ccccc21` (stereo not given), for which the inhibition is inactive: -5.2%. For `O=C(Cn1c(-c2cscn2)nc2ccccc21)Nc1ccc(Cl)cc1` the value was inactive: -31.5%; for `N#CCC(=O)N/N=C\c1cc(Br)ccc1OC/C=C/c1ccccc1`, inactive: 3.7%; for `Cc1ccc(SCc2nc3ccccc3n2CC(=O)Nc2ccccc2)cc1`, inactive: -8.2%. In the case of `Cc1ccc2c(c1)C1CN(C)CCC1N2S(=O)(=O)c1ccc(Oc2ccc([N+](=O)[O-])cc2)cc1` (stereo not given), the inhibition is inactive: -25.9%. For `Cc1cc(NC(=O)CSc2nc3ccccc3n2CC(=O)N2CC(C)CC(C)C2)no1` (stereo not given) the value was inactive: 16.6%. The same measure for `CCOC(=O)CSc1nc2ccccc2n1CC(=O)N1CCN(c2ccccc2)CC1`: inactive: -25.6%.

Consider `c1ccc(CN2CCC3(CC2)Nc2ccccc2CO3)cc1`, for which the inhibition is inactive: -13.7%.

Turning to `Cn1c(=O)c2c(ncn2CC(=O)N2CCN(c3ccccc3F)CC2)n(C)c1=O`, the inhibition is inactive: -2%.

On to `N=c1n(CCN2CCCCC2)c2ccccc2n1CC(O)c1ccco1` (stereo not given), for which the inhibition is inactive: 20%. Regarding `O=C(Cn1c(NCCO)nc2ccccc21)N1CCN(Cc2ccccc2)CC1`, the inhibition was inactive: 4.9%. For `Cn1c(=O)c2c(ncn2CC(=O)Nc2ccccc2)n(C)c1=O` the value was inactive: -10.5%; for `Nc1ccccc1CNc1nc(NCCO)nc2c1ncn2CCN1CCOCC1`, inactive: 18.9%; for `CCC(C)[C@H](NC(=O)N1CCn2c1nc1ccccc12)C(=O)NCCc1ccccc1` (stereo not given in full), inactive: -3.7%. Turning to `O=C(NC1CCCCC1)N1CCC(n2c(=O)[nH]c3ccccc32)CC1`, the inhibition was inactive: -1.8%. The same measure for `Cn1c(=O)c2c(nc(Sc3nc4ccccc4n3CC(=O)N3CCCCC3)n2C)n(C)c1=O`: inactive: -23%.

As for `COc1ccc(C2=NCC(CBr)S2)cc1` (stereo not given), the inhibition is inactive: 1.5%. Take `CCN(CC)CCn1c(=N)n(CCO)c2ccccc21`: the inhibition is inactive: 40%. The same measure for `Cn1c(=O)c2c(ncn2CC(=O)N/N=C/c2ccco2)n(C)c1=O`: inactive: -2.6%. The same measure for `CC(=O)N1CCc2cc(S(=O)(=O)NC(CC(C)C)C(=O)N3CCn4c3nc3ccccc34)ccc21` (stereo not given): inactive: 22.9%; for `Cc1ccc(NP(=O)(Oc2ccccc2)Oc2ccccc2)nc1`: inactive: -12.6%; for `O=[N+]([O-])c1ccc(NC2CCN(Cc3ccccc3)CC2)c([N+](=O)[O-])c1`: inactive: 27.3%. For `CC1CC(C)CN(C(=O)Cn2c(-c3nonc3N)nc3ccccc32)C1` (stereo not given) the value was inactive: 14.1%. In the case of `Cc1nc2ccccc2n1CC(=O)N/N=C/c1cccs1`, the inhibition is inactive: -3.9%. For `COC(=O)c1ccccc1NC(=O)Cn1cnc2cc(C)c(C)cc21` the value was inactive: 4.2%; for `O=[N+]([O-])c1cc([N+](=O)[O-])c(CCNc2ccccc2)c([N+](=O)[O-])c1`, inactive: 23.3%; for `CCc1nc2c(n1)c1c(non1O)c1c2no[n+]1[O-]`, inactive: 5.4%. Regarding `Cc1csc2ncnc(NC3CCN(Cc4ccccc4)CC3)c12`, the inhibition is inactive: -20.3%. For `Cn1c(=O)[nH]c(=O)c2c1nc(CN1CCN(Cc3ccccc3)CC1)n2CC(N)=O` the value was inactive: 9.9%; for `Cc1ccc(OCC(O)Cn2c(=N)n(CCN3CCOCC3)c3ccccc32)cc1` (stereo not given), inactive: 4.8%.

Consider `COC(=O)c1ccc(NC(=O)Cn2c(-c3nonc3N)nc3ccccc32)cc1`, for which the inhibition was inactive: 9.4%. The same measure for `N=c1n(CCN2CCCCC2)c2ccccc2n1CC(O)COc1ccccc1` (stereo not given): inactive: 3.7%.

As to `COC(=O)c1sccc1NC(=O)Cn1cnc2c1c(=O)n(C)c(=O)n2C`, the inhibition was inactive: 12.6%. As to `N#CCCNC(=O)Cn1c(COc2ccc(Cl)cc2)nc2ccccc21`, the inhibition is inactive: -10.7%.

With `Cn1c(=O)[nH]c(=O)c2c1nc1n2CCN1Cc1ccccc1`, the inhibition is inactive: 0.9%.

With `Cn1ncc([N+](=O)[O-])c1C(=O)Nc1nc2ccccc2n1CCN1CCCCC1`, the inhibition was inactive: 11.5%. For the molecule `CC(=O)N1C2C3N(C(C)=O)C1C1N(C(C)=O)C(C(N1C(C)=O)N3C(C)=O)N2C(C)=O`, the inhibition is inactive: -6.6%. In the case of `CC#CCCC(=O)N1C=Cc2ccccc2C1C#N` (stereo not given), the inhibition was inactive: -4.8%. The same measure for `O=[N+]([O-])c1cccc2n[nH]nc12`: inactive: -1.6%. For `CCOc1ccccc1OCC(=O)NNC(=O)Cn1cnc2c1c(=O)n(C)c(=O)n2C` the value was inactive: 4.5%; for `Nc1nonc1-c1nc2ccccc2n1CC(=O)N1CCCCC1`, inactive: 24.9%. For `Cc1ccc(C)c(CN2CCC(n3nnc4cc(F)ccc43)CC2)c1` the value was inactive: -46.4%. As for `CC(C)C[C@H](NC(=O)N1CCn2c1nc1ccccc12)C(=O)NC1CCCCC1`, the inhibition is inactive: -15.6%. The same measure for `O=C(Nc1ccc2c(c1)nc1n2CCN(Cc2ccccc2)C1)NC1CCCCC1`: inactive: 24.2%; for `COc1ccc(/C([O-])=C(/C(=S)Nc2ccc(C)c(C)c2)n2c[n+](C)c3ccccc32)cc1OC`: inactive: -10.9%; for `CCN(/C(=N/P(=O)(N1CCOCC1)N1CCOCC1)N1CCOCC1)c1ccc(OC)cc1`: inactive: 2.2%.

Consider `CCOC(=O)c1c(NC(=O)Cn2c(C)nc3ccccc32)sc2c1CCC2`, for which the inhibition was inactive: -10.4%.

With `COc1ccc(N2CCn3c2nc2c3c(=O)n(CCCc3ccccc3)c(=O)n2C)cc1`, the inhibition was inactive: 4.9%. With `Nc1ccc([As](=O)(O)c2ccc(N)cc2)cc1`, the inhibition is inactive: -4.7%.

Consider `c1ccc(CCn2nnnc2CN2CCC(n3nnc4ccccc43)CC2)cc1`, for which the inhibition is inactive: 11.2%.

Consider `CCC(CC)NC(=O)Cn1c(C(C)NC(C)=O)nc2ccccc21` (stereo not given), for which the inhibition is inactive: 15.5%. The same measure for `C[C@H](NC(=O)N1CCn2c1nc1ccccc12)C(=O)NC1CCCCC1`: inactive: 0.8%; for `FC(F)(F)c1ccc2c(c1)nnn2C1CCN(Cc2nnnn2Cc2ccccc2)CC1`: inactive: 9.4%; for `COc1ccc2nc(NC(=O)Cn3cnc4c(=O)n(C)c(=O)n(C)c43)sc2c1`: inactive: -25.8%. `CCC(=O)Nc1ccc(NC(=S)NC(=O)/C=C/c2ccccc2)cc1`: the inhibition was inactive: -18.4%. The same measure for `Cc1ccc(-c2nnc(N3CCN(C(=O)Cn4c(=O)n(C)c5ccccc54)CC3)c3ccccc23)cc1`: inactive: -9.5%; for `CCc1ccc(C(C)NC(=O)Cn2cnc3c(=O)n(C)c(=O)n(C)c32)cc1` (stereo not given): inactive: 55.6%. The same measure for `Cc1ccc2c(c1)C1CN(C)CCC1N2C(=O)Cn1cnc2c1c(=O)n(C)c(=O)n2C` (stereo not given): inactive: -26.7%. As for `C[N+]1=C2C=CC=CC=C2SC12C([N+](=O)[O-])=CC([N+](=O)[O-])=C[C-]2[N+](=O)[O-]` (stereo not given), the inhibition is active: 101%.

Regarding `O=C1CC(C(=O)Nc2cccc(F)c2)n2c(nc3ccccc32)N1` (stereo not given), the inhibition was inactive: 24.7%. For `CC1CCN(C(=O)Oc2c(Cl)cc(Cl)c3cccnc23)CC1` the value was inactive: 1%; for `CNC(=O)Cc1nc2ccccc2n1CC(=O)Nc1cc(C)cc(C)c1`, inactive: -9.2%.

As for `CCSc1nc2ccccc2n1CC(=O)N1CCCCC1`, the inhibition is inactive: -5%. On to `Cc1nc2ccccc2n1CC(=O)NC1CCCCCC1`, for which the inhibition is inactive: 6.6%. As for `Cn1c(=O)n(CC(=O)N2CCN(c3nnc(-c4ccccc4)c4ccccc34)CC2)c2ccccc21`, the inhibition is inactive: -21.6%. For `CCN(CC)CCn1c(NCc2cccc(OC)c2OC)nc2ccccc21` the value was inactive: -20.4%; for `NNC(=O)Cn1c(SCc2ccccc2)nc2ccccc21`, inactive: -3.6%. Take `CN1CCC(N(C)c2ncnc3ccc(Br)cc23)CC1`: the inhibition was inactive: 9.5%.

With `Cn1c(=O)c2c(ncn2CC(=O)N2CCN(c3ccc([N+](=O)[O-])cc3)CC2)n(C)c1=O`, the inhibition is inactive: 2.8%. The same measure for `CCc1nc2ccccc2n1CC(=O)N(C(C)CC)C1CCS(=O)(=O)C1` (stereo not given): inactive: -13.2%.

Regarding `CN(C)C(=O)OCCc1n(C)cc[n+]1C`, the inhibition is inactive: -30.1%. For `O=[N+]([O-])c1ccccc1NC1CCN(Cc2ccccc2)CC1` the value was inactive: -4.9%; for `Cc1ccc2c(c1)C1CN(C)CCC1N2C(=O)Nc1ccc(Cl)cc1` (stereo not given), inactive: 2.1%. The same measure for `Cc1ccc2c(c1)C1CN(C)CCC1N2C(=O)c1cccnc1Cl` (stereo not given): inactive: 14.1%; for `COc1ccc(N2CCn3c2nc2c3c(=O)n(CCc3ccccc3)c(=O)n2C)cc1`: inactive: -32.9%; for `O=C(Cn1cnc2ccccc21)NCCCN1CCOCC1`: inactive: -2.2%. For `Cn1c(=O)c2ncn(CC(=O)NC3CCCCCC3)c2n(C)c1=O`, the inhibition is inactive: -10.9%. In the case of `CC(C)[C@H](NC(=O)N1CCn2c1nc1ccccc12)C(=O)NCc1ccc2c(c1)OCO2`, the inhibition was inactive: -17.5%. For `Cn1c(=O)n(Cc2ccc(Cl)cc2)c(=O)c2c1nc1n2CCN1Cc1ccco1` the value was inactive: -23.7%; for `Cn1c(=O)c2c(nc(NCCc3ccccc3)n2CC(=O)NCCc2ccccc2)n(C)c1=O`, inactive: 20.8%. For `Cc1cc(NC(=O)CSc2nc3ccccc3n2CC(=O)N2CCCCC2)no1` the value was inactive: -1.3%; for `O=C(CCCN1CCC2(CC1)C(=O)NCN2c1ccccc1)c1ccc(F)cc1`, inactive: -57.6%; for `Cn1c(=O)c2c(nc(CN3CCN(c4ccc(F)cc4)CC3)n2CCN2CCOCC2)n(C)c1=O`, inactive: 16.2%. For `COc1cc(NC(=O)Cn2c(-c3cncs3)nc3ccccc32)cc(OC)c1OC` the value was inactive: -30.2%; for `N#CCC(=O)N/N=C\c1ccccc1OC/C=C/c1ccccc1`, inactive: 1.7%. For the molecule `Cc1ccc2c(c1)C1CN(C)CCC1N2CC(=O)N(C)c1ccccc1` (stereo not given), the inhibition was inactive: 26.7%. Turning to `CCOC(=O)Nc1ccc2c(c1)nc1n2CCN(CCOC)C1`, the inhibition was inactive: -34.2%. The same measure for `COc1ccc(Cc2nnc(NC(=O)Cn3cnc4c3c(=O)n(C)c(=O)n4C)s2)cc1`: inactive: -25.4%.
